We go through one compound from patent US10322114B2 (Above and Beyond NB LLC, priority 2017, dated 2019).

For this data set the following is noted: dogs #1199 and #1205; after 3 weeks continuous IT infusion 0.1 mg/hour.

Regarding `Nc1nc2ccc(OC(F)(F)F)cc2s1` [Riluzole, 2-Amino-6-(trifluoromethoxy)benzothiazole], the route of elimination result is given as “largely eliminated by the kidneys in urine”.
